# Earlier results as cited in US4594358A, “Analgesic method” (Eli Lilly and Company, priority 1985, dated 1986).
# Test system: serotonin uptake
# Conditions: Fuller et al. 1975; Wong et al.; cited from earlier work
compound,measurement,value
"CNCCC(Oc1ccc(C(F)(F)F)cc1)c1ccccc1 (stereo not shown) [Fluoxetine, 3-(4-trifluoromethylphenoxy)-N-methyl-3-phenylpropylamine]",inhibition of serotonin uptake (in words),highly specific inhibitor of serotonin uptake
